# Source: PubChem
# GIV Gai3 FP: blocks GIV peptide binding to rat Galpha-i3; Galpha-i3/FITC-GIV peptide fluorescence polarization, 90 min; stronger effect = lower value; scaled: aluminum fluoride 0%, vehicle 100%; P08753; hit rate 0.42% among 210,000; AID 1224905; percent of control (FP), % (test concentration not listed);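 active = replicate mean at 85% of control or lower, very high polarization wells dropped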;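 also: wells of about 15 µL received 100 nL stock; the first replicate is given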
# HCMV UL50-53 inh: disrupts HCMV UL50-UL53 complex binding. AID 1918969. actives 0.15% (n = 190,000). inhibition, % (no concentration beside the values). HTRF UL50-UL53 interaction, normalized percent inhibition; in the data active = inhibition above about 27%, passing the limit was not always enough
# * hit, by the source's call; . = no result given. Rows were chosen to be rich in hits. Some 0.46% of all compounds tested hit in one or more screens of this group.
1	CCCSc1nc2cc(C)c(C)cc2n1CC(O)CO (stereo not drawn)
  GIV Gai3 FP = .; HCMV UL50-53 inh = -29.9
2	Cc1cc(C)c2cc3c(cc2n1)CCN3CC(O)CO (stereo not drawn)
  GIV Gai3 FP = -26.4*; HCMV UL50-53 inh = -53.1
3	O=C1CCCN1CC12CC3CC(CC(C3)C1)C2
  GIV Gai3 FP = 101.5; HCMV UL50-53 inh = .
4	O[N+]1=CC=CCC1=S.On1ccccc1=S.[Zn]
  GIV Gai3 FP = .; HCMV UL50-53 inh = 93.1*
5	CCN(CC)c1ccc2cc(-c3nc4ccccc4n3C)c(=O)oc2c1
  GIV Gai3 FP = -24.2*; HCMV UL50-53 inh = -15.1
6	CCN(CC)c1ccc2cc(-c3nc4ccccc4s3)c(=O)oc2c1
  GIV Gai3 FP = 249.8; HCMV UL50-53 inh = 3.2
7	CCC(=O)Oc1ccc2cc(-c3nc4ccccc4n3C)c(=O)oc2c1
  GIV Gai3 FP = .; HCMV UL50-53 inh = -19.1
8	CCN(CC)c1ccc2cc(-c3nc(-c4ccc(Cl)cc4Cl)cs3)c(=O)oc2c1
  GIV Gai3 FP = -69.2*; HCMV UL50-53 inh = .
9	Cc1noc(Cn2c(=O)c3ccccc3n(CC(=O)Nc3ccccc3F)c2=O)n1
  GIV Gai3 FP = 103.7; HCMV UL50-53 inh = -14.0
10	Cc1nc(CNC(=O)c2coc(C3CC3)n2)no1
  GIV Gai3 FP = 100.6; HCMV UL50-53 inh = -8.5

11	CN1/C(=C/C=C/c2oc3ccccc3[n+]2C)Oc2ccccc21
  GIV Gai3 FP = -5.9*; HCMV UL50-53 inh = .
12	Cc1nc2nc(-c3ccccc3)c(-c3ccccc3)n2nc1C
  GIV Gai3 FP = 116.4; HCMV UL50-53 inh = .
13	c1ccc(-c2nc3nc(-c4ccccc4)c(-c4ccccc4)n3nc2-c2ccccc2)cc1
  GIV Gai3 FP = -30.6*; HCMV UL50-53 inh = .
14	CCOC(=O)c1c(NC(=S)Nc2ccccc2OC)sc2c1CC(C)(C)OC2
  GIV Gai3 FP = 103.2; HCMV UL50-53 inh = .
15	Cc1cccc(NC(=O)Nc2c(O)c3ccccc3oc2=O)c1C
  GIV Gai3 FP = 102.3; HCMV UL50-53 inh = -15.0
16	COCCCN1C(=O)/C(=C/c2c(N3CCN(CCO)CC3)nc3ccccn3c2=O)SC1=S
  GIV Gai3 FP = 23.2*; HCMV UL50-53 inh = .
17	Cc1cccn2c(=O)c(/C=C3\SC(=S)N(Cc4ccccc4)C3=O)c(N3CCN(C)CC3)nc12
  GIV Gai3 FP = 121.5; HCMV UL50-53 inh = -12.7
18	COCCN1C(=O)/C(=C/c2c(N3CCN(CCO)CC3)nc3ccccn3c2=O)SC1=S
  GIV Gai3 FP = -29.1*; HCMV UL50-53 inh = -97.3
19	O=C1/C(=C\c2c(N3CCN(CCO)CC3)nc3ccccn3c2=O)SC(=S)N1CC1CCCO1 (stereo not drawn)
  GIV Gai3 FP = 25.1*; HCMV UL50-53 inh = .
20	CCN1CCN(c2nc3ccccn3c(=O)c2/C=C2\SC(=S)N(CC)C2=O)CC1
  GIV Gai3 FP = 288.7; HCMV UL50-53 inh = -60.7

# Some of these compounds in order of molar mass, rising.
18	COCCN1C(=O)/C(=C/c2c(N3CCN(CCO)CC3)nc3ccccn3c2=O)SC1=S
  GIV Gai3 FP = -29.1*; HCMV UL50-53 inh = -97.3
16	COCCCN1C(=O)/C(=C/c2c(N3CCN(CCO)CC3)nc3ccccn3c2=O)SC1=S
  GIV Gai3 FP = 23.2*; HCMV UL50-53 inh = .
17	Cc1cccn2c(=O)c(/C=C3\SC(=S)N(Cc4ccccc4)C3=O)c(N3CCN(C)CC3)nc12
  GIV Gai3 FP = 121.5; HCMV UL50-53 inh = -12.7

# The listing continues.
21	CC1CCN(c2nc3ccccn3c(=O)c2/C=C2/SC(=S)N(CC3CCCO3)C2=O)CC1 (stereo not drawn)
  GIV Gai3 FP = 159.7; HCMV UL50-53 inh = .
22	CC(c1ccccc1)N1C(=O)/C(=C\c2c(N3CCN(CCO)CC3)nc3ccccn3c2=O)SC1=S (stereo not drawn)
  GIV Gai3 FP = 170.0; HCMV UL50-53 inh = .
23	Cc1cccn2c(=O)c(/C=C3\SC(=S)N(CC4CCCO4)C3=O)c(N3CCN(C)CC3)nc12 (stereo not drawn)
  GIV Gai3 FP = -29.6*; HCMV UL50-53 inh = -81.9
24	CCCn1cnc2nc(CSc3ccccc3NC(=O)c3ccccc3Cl)cc(=O)n21
  GIV Gai3 FP = 101.7; HCMV UL50-53 inh = -11.4
25	COc1cc(/C=c2/sc3nc(-c4ccccc4)c(-c4ccccc4)n3c2=O)ccc1OCc1ccc(Cl)cc1Cl
  GIV Gai3 FP = 111.2; HCMV UL50-53 inh = .
26	Cc1ccnc(N2CCC(C(=O)NCCc3c[nH]c4ccccc34)CC2)n1
  GIV Gai3 FP = 96.7; HCMV UL50-53 inh = .
27	Cc1cc(C)nc(NS(=O)(=O)c2ccc(NC(=O)CSc3nc4c(cc3C#N)CCCCC4)cc2)n1
  GIV Gai3 FP = 101.7; HCMV UL50-53 inh = 27.9*
28	COc1ccc(NC(=O)CSc2nc3c(cc2C#N)CCCC3)cc1
  GIV Gai3 FP = 103.4; HCMV UL50-53 inh = .
29	CCOC(=O)c1oc2ccccc2c1CSc1nc2ccccc2c(=O)n1CC1CCCO1 (stereo not drawn)
  GIV Gai3 FP = .; HCMV UL50-53 inh = 6.6
30	O=C(O)CN1C(=O)/C(=C\c2cc([N+](=O)[O-])cc(Br)c2O)SC1=S
  GIV Gai3 FP = -59.0*; HCMV UL50-53 inh = -78.3

31	O=C1/C(=C/c2cc([N+](=O)[O-])cc(Br)c2O)SC(=S)N1c1ccc([N+](=O)[O-])cc1
  GIV Gai3 FP = 105.9; HCMV UL50-53 inh = -18.7
32	CC1CCCCN1Cc1c(O)ccc2cc(-c3nc4ccccc4s3)c(=O)oc12 (stereo not drawn)
  GIV Gai3 FP = -31.8*; HCMV UL50-53 inh = -60.9
33	CCC1CCCCN1Cc1c(O)ccc2cc(-c3nc(C)cs3)c(=O)oc12 (stereo not drawn)
  GIV Gai3 FP = .; HCMV UL50-53 inh = -56.2
34	Cc1cccc2c(C(=O)Nc3ccc4c(c3)C(=O)N(C)C3=NCCN34)cc(-c3ccccc3)nc12
  GIV Gai3 FP = 99.5; HCMV UL50-53 inh = 2.1
35	Cc1cccn2c(=O)c(/C=C3\SC(=S)N(Cc4ccccc4)C3=O)c(NCc3ccco3)nc12
  GIV Gai3 FP = 265.3; HCMV UL50-53 inh = .
36	C=CCNc1nc2c(C)cccn2c(=O)c1/C=C1\SC(=S)NC1=O
  GIV Gai3 FP = -41.9*; HCMV UL50-53 inh = .
37	Cc1c(O)ccc2c(CN(C)CC3COc4ccccc4O3)cc(=O)oc12 (stereo not drawn)
  GIV Gai3 FP = .; HCMV UL50-53 inh = -12.3
38	O=S(=O)(c1ccccc1)c1nnn2c1nc(NCc1ccccc1)c1ccccc12
  GIV Gai3 FP = 106.0; HCMV UL50-53 inh = -0.1
39	CC(=O)c1ccc(N=Cc2c(C)[nH]n(-c3ccc(C)c(C)c3)c2=O)cc1
  GIV Gai3 FP = 110.5; HCMV UL50-53 inh = .
40	Cc1ccc(-n2[nH]c(C)c(N=Nc3cccc(-c4cccc(C(=O)O)c4)c3O)c2=O)cc1C
  GIV Gai3 FP = .; HCMV UL50-53 inh = 79.7*
41	CCOC(=O)c1c(C)[nH]c(C)c1C(=O)COC(=O)c1ccc(F)c(S(=O)(=O)N2CCOCC2)c1
  GIV Gai3 FP = .; HCMV UL50-53 inh = -3.1
42	N#CC1=C(N)C(C#N)(C#N)C(c2ccc(Br)cc2)C2CN(Cc3ccccc3)CC=C12 (stereo not drawn)
  GIV Gai3 FP = 164.9; HCMV UL50-53 inh = .
43	N#CC1=C(N)C(C#N)(C#N)C(c2ccc(Cl)cc2)C2CN(Cc3ccccc3)CC=C12 (stereo not drawn)
  GIV Gai3 FP = -57.5*; HCMV UL50-53 inh = .
